{
  "sequences": {"note": "Protein sequences, listed by entry. Tags and fused reporters are not part of them. Lines headed by an entry give the natural chain unless they say otherwise; changes in a name come on top.", "UniProt P32240": "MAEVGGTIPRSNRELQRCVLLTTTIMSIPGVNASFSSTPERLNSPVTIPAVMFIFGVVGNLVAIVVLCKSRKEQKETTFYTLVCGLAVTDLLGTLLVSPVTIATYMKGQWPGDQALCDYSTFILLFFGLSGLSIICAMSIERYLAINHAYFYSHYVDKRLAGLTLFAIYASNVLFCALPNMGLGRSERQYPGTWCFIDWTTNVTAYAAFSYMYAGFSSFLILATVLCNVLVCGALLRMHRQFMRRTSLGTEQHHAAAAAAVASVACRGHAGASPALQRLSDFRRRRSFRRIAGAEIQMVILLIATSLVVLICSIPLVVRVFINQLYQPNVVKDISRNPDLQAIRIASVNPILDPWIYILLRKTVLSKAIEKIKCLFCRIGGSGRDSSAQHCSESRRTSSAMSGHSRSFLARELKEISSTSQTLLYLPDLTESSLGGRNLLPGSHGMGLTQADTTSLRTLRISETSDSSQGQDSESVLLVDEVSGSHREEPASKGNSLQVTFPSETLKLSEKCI"},
  "source": "patent US20040241243A1",
  "about": "“Angiogenesis promotion by prostaglandin compositions and methods” (NexMed (Holdings) Inc., priority 2003, published 2004)",
  "key": {"[1]": {"tested_on": "segments of rat iliac arteries", "experiment": "microvascular outgrowth from rat iliac artery ringlets cultured in Matrigel", "format": "cell-based, Sprague-Dawley rats", "description": "Each sample was placed on a reduced-growth factor Matrigel coated coverglass slide in a culture dish filled with serum-free medium. PGE1 (Sigma) was added to the medium at a final concentration of 1, 10, 20, 30, 60, or 100 micromoles (μM). The cultures were incubated at 37° C. in a humidified atmosphere with 5% CO2. Digital photographs were taken of growth after 96 hours. The control group (6 samples) was incubated in Matrigel in serum free medium without PGE1.\nGrowth Factor Reduced Matrigel (Passaniti, A., et al., Lab. Invest. 1992 67:518-528) was purchased from Becton Dickinson (Mountain View, Calif.). Cell culture grade PGE1 was purchased from Sigma Chemical. (St. Louis, Mo.). RPIM-1640 and other cell culture reagents were purchased from GIBCO Invitrogen Corp. (Grand Island, N.Y.).\nMale Sprague-Dawley rats, two-months old, were used in this study. […]\nAfter 96 hours of incubation, the iliac artery ringlet cultures were examined. […] The digital images were analyzed using ChemiImager 4000 software (Alpha Innotech Corporation, San Leandro, Calif.) to determine the maximum length of the microvascular growths.\nStatistical analysis was performed using computer software from Primer of Biostatistics, 3rd ed. […] The data involving different time points were first analyzed by one-way analysis of variance (ANOVA). […]"}, "EP2 receptor": {"target": "EP2 receptor (Mus musculus, UniProt Q62053)", "settings": "read-out: affinity for the EP2 receptor; cited from earlier work"}, "EP4 receptor": {"target": "EP4 receptor (Mus musculus, UniProt P32240)", "settings": "read-out: affinity for the EP4 receptor; cited from earlier work"}},
  "data": [
    {"substance": "Prostaglandin E1 [PGE1]", "values": [
      {"measurement": "maximum microvascular growth relative to peak at 1 μM", "setting": "[1]; higher doses 10, 20, 30 and 60 μM", "value": "smaller maximum microvascular growth"},
      {"measurement": "maximum microvascular growth relative to absence of PGE1", "setting": "[1]; highest doses 20, 30 and 60 μM", "value": "apparently reduced the maximum microvascular growth"},
      {"measurement": "Kd", "setting": "EP2 receptor", "value": "~10", "unit": "nM"},
      {"measurement": "Kd", "setting": "EP4 receptor", "value": "~2", "unit": "nM"}
    ]}
  ]
}
